Target: T1, hAChE (Homo sapiens, UniProt P22303)
T1 construct: purchased Sigma C1682
Assay: Ellman AChE inhibition assay, recombinant hAChE
Type: biochemical
Conditions: pH 7.8, 10 min preincubation; read-out: hAChE recomb. IC50

The chains behind the UniProt entries cited, without tags or fusion partners. Residues count along the entry.
UniProt P22303, 32-614: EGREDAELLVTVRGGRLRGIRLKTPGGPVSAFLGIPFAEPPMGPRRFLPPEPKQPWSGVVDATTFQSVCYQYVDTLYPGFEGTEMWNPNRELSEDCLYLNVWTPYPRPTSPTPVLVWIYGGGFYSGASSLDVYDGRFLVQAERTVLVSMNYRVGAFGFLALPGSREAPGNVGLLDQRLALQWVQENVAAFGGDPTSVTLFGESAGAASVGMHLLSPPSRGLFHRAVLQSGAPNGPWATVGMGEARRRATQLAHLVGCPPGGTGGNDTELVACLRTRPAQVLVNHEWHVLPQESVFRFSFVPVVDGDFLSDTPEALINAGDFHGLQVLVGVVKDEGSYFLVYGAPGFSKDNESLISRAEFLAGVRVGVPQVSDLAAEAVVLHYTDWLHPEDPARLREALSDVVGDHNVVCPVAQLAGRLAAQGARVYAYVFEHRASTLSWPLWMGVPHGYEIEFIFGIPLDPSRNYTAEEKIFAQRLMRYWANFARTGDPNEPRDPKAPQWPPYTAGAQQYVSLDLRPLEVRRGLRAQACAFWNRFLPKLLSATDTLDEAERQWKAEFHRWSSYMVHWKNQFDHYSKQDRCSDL

## CNC(=O)O/N=C/C(C)(C)SC [Aldicarb, reference compound]
  IC50: 4.42 µM

Source: patent publication US8618162B2 (priority 2007, dated 2013)
